We go through one molecule from paper PMC9541495, “Understanding the interaction of 14‐3‐3 proteins with hDMX and hDM2: a structural and biophysical study” (The Febs Journal, 2022).

For assay [1], the target named is T1, 14‐3‐3η (human, UniProt Q04917 1-246).
T1 construct: 14-3-3 eta, human, full-length protein from the pProEx HTb-His-14-3-3 construct; Captured on an NTA chip in SPR; source: E. coli BL21(DE3), purified (Ni2+-NTA, dialysis)
T1 sequence (looked up): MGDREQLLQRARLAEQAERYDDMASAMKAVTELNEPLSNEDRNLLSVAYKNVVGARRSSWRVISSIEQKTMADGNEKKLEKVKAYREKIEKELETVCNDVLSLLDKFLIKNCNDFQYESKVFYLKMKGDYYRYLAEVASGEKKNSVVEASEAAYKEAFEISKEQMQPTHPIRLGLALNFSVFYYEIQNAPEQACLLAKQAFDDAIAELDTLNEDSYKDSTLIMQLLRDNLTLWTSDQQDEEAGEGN
As to the kind of experiment: SPR; 14-3-3η immobilised on an NTA sensor chip (Ni2+ capture and amine coupling, about 2000 RU); acetylated peptides injected, 11 serial dilutions from 10x the FA Kd; 25 °C; Biacore T200; multicycle kinetics fitted to a Langmuir model, Kd from steady state dose-response. Conditions: both partners purified. A general note: SPR reads the build-up and loss of mass on a sensor chip optically.

For assay [2], the target named is T1, 14‐3‐3η. Put plainly: ITC; acetylated peptide in the syringe titrated into 14-3-3η in the cell; 25 °C; 25 mM HEPES pH 7.5, 100 mM NaCl, 10 mM MgCl2, 0.5 mM TCEP; MicroCal iTC200. To be noted: both partners purified. (In general: ITC needs no label: the signal is the heat of the interaction.)

B1: Ac‐hDM2_(160‐192) ^pSer166/pSer186 (peptide)
peptide: SRRRAISETEENSDELSGERQRKRHKSDSISLS
modifications: phosphoserine at 166 and at 186; N-terminal acetyl; C-terminal amide
notes: hDM2 (human double minute 2 protein), human, residues 160-192; Acetylated form used for ITC and SPR; source: synthetic peptide (Fmoc SPPS on Rink amide ProTide resin, HPLC purified)
Turning to B1, the dissociation constant Kd in the assay with 14‐3‐3η [1] was determined as 155 nM; with 14‐3‐3η [2] it was 151 ± 57 nM.

The Kd is the constant that tells how readily two partners part at equilibrium. A low value points to tighter binding.
